Test [1] addresses Kappa-type opioid receptor (Mus musculus) (UniProt P33534). In words: Antagonist activity at KOR in mouse vas deferens assessed as inhibition of U69593-induced response.
The target in test [2] is Kappa-type opioid receptor (Cavia porcellus) (UniProt P41144). In words: Partial agonist activity at kappa opioid receptor in guinea pig ileum assessed as inhibition of electrically-stimulated muscle contraction relative to control. The settings on record: concentration not given here.
The target of test [3] is Delta-type opioid receptor (Mus musculus) (UniProt P32300). Description: Antagonist activity at DOR in mouse vas deferens assessed as inhibition of DPDPE-induced response.
For test [4], the target named is Mu-type opioid receptor (Mus musculus) (UniProt P42866). Description: Antagonist activity at MOR in mouse vas deferens assessed as inhibition of DAMGO-induced response.
The nature of test [5]: Selectivity ratio of Ki for rat recombinant MOR to Ki for human KOR.
For test [6], the target named is Mu-type opioid receptor (Rattus norvegicus) (UniProt P33535). In words: Agonist activity at rat recombinant MOR expressed in rat C6 cells assessed as stimulation of [35S]GTPgammaS binding after 1 hr relative to DAMGO.
Test [7] has as its target Kappa-type opioid receptor (Homo sapiens) (UniProt P41145). Description: Agonist activity at human KOR expressed in CHO cells assessed as stimulation of [35S]GTPgammaS binding relative to U69593. (GTPγS resists hydrolysis and so accumulates on activated G proteins.)

By UniProt entry, the sequences of proteins in these tests, tags left out.
UniProt P33534, whole entry: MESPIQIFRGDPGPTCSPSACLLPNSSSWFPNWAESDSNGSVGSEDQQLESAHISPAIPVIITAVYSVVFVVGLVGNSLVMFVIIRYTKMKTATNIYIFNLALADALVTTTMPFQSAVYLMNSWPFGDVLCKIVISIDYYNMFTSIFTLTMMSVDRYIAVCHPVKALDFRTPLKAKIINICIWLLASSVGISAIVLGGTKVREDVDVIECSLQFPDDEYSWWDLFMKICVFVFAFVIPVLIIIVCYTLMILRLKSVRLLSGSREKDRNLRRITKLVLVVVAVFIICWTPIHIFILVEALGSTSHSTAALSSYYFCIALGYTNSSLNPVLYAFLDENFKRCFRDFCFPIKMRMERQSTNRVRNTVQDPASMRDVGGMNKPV
UniProt P41144, whole entry: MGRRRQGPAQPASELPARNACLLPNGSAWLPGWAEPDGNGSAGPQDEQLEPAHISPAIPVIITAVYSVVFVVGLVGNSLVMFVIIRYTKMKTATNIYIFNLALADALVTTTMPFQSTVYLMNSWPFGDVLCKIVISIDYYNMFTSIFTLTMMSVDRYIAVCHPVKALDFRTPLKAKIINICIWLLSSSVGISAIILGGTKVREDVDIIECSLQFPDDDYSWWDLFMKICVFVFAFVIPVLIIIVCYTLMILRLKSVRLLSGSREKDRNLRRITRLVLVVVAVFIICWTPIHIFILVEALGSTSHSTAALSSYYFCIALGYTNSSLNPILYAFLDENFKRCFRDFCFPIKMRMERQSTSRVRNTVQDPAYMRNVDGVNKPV
UniProt P32300, whole entry: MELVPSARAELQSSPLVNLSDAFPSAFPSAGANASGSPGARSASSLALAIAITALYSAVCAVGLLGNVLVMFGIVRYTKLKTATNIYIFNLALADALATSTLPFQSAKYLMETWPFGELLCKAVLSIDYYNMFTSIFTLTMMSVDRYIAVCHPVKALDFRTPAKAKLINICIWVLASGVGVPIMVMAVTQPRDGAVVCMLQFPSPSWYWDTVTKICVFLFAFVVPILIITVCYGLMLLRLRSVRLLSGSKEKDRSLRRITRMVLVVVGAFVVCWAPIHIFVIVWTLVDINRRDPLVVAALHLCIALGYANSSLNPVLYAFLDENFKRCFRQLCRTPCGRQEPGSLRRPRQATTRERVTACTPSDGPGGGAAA
UniProt P42866, whole entry: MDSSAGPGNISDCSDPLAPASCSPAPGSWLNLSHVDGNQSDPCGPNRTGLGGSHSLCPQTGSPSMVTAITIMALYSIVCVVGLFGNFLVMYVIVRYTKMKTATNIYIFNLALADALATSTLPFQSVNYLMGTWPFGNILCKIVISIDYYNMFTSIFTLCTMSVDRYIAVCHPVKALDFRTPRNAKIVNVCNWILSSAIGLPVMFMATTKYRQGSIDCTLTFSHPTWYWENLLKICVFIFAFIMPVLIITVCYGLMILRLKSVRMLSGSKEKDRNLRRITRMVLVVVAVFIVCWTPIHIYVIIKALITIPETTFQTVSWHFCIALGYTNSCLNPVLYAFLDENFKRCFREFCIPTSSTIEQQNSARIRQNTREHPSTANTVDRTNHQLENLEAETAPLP
UniProt P33535, whole entry: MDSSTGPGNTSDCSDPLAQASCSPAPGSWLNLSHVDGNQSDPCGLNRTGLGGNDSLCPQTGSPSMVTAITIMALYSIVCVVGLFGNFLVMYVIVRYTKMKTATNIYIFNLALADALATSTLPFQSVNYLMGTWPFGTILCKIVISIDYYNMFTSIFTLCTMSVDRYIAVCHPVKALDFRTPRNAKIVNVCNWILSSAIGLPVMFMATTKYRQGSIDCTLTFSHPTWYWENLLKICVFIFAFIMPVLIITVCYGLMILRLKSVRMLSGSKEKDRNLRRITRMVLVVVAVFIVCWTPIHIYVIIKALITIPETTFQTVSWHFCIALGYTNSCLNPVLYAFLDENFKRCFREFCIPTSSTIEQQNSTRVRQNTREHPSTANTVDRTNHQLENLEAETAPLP
UniProt P41145, whole entry: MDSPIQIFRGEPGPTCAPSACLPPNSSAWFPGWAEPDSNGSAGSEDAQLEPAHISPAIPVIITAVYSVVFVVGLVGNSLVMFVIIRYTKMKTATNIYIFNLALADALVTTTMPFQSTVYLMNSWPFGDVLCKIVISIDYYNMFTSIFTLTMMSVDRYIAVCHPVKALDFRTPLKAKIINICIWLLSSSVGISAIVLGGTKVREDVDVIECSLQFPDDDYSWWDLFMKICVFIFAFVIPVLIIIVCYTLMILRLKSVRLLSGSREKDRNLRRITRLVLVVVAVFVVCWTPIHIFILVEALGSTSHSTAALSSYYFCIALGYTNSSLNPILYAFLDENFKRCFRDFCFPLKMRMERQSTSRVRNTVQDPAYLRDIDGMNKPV

Take `CCCCC[C@](C)(O)[C@H]1C[C@@]23CC[C@]1(OC)[C@@H]1Oc4c(O)ccc5c4[C@@]12CCN(CC1CC1)[C@@H]3C5`: the Ke in test [1] is 0.01 nM; in test [3] it was 0.35 nM; in test [4], 0.02 nM. Besides, the inhibition (commonly the drop in the measured response relative to a control, in per cent) in test [2] was found to be 30%.

Turning to `CO[C@]12CC[C@@]3(C[C@@H]1[C@@H](O)C1CCCC1)[C@H]1Cc4ccc(O)c5c4[C@@]3(CCN1CC1CC1)[C@H]2O5`, in test [5], the Ratio Ki amounted to 11. In addition, the results for the Activity in test [6] and in test [7] were 35% and 104%, respectively.

Regarding `CCC[C@@](C)(O)[C@H]1C[C@@]23CC[C@]1(OC)[C@@H]1Oc4c(O)ccc5c4[C@@]12CCN(CC1CC1)[C@@H]3C5`, the results for the Ke in test [1] and in test [3] were 0.2 nM and 0.16 nM, respectively. The inhibition in test [2] turned out to be 30%.
